Results from patent US20240293394A1, “METHODS FOR TREATING ANTIPSYCHOTIC-INDUCED WEIGHT GAIN” (priority 2010, published 2024).

Columns and labels:
[1] = Olanzapine-related changes (body weight, adipose tissue, serum chemistry) in female cynomolgus monkeys; format: in vivo; details: olanzapine only
Method: Clinical observations and weight gain were assessed over a 28-day treatment period. […] Beginning two weeks prior to the study, monkeys were given ad libitum access to a highly palatable, high caloric diet. On the day prior to the start of treatment, monkeys were weighed and assigned to groups using a randomized block design based on body weight (BW); average BW across the 3 groups was 3.1+0.08 kg on the day of randomization. Also, baseline whole body CT scans were taken on the day prior to initiation of treatments. […] A second CT scan was conducted on day 29.

[2] = patients; Taylor et al., Acta Psychiatr Scand. 2001; cited from earlier work

Cc1cc2c(s1)Nc1ccccc1N=C2N1CCN(C)CC1 [olanzapine, 2-methyl-4-(4-methyl-1-piperazinyl)-10H-thieno[2,3-b][1,5]benzodiazepine]
average body weight gain ([1]; PO twice daily, up to 6 mg/kg daily, 28 days, ad libitum high caloric diet): 0.46 kg
average body weight gain, % of Day 0 BW ([1]; 28 days): 15%
concentration of LDL ([1]; serum, Day 28): 105.8 mg/dL
concentration of triglycerides (TGs) ([1]; serum, Day 28): 86.6 mg/dL
weight gain associated with atypical antipsychotic [2]: greatest

Cc1nc2n(c(=O)c1CCN1CCC(c3noc4cc(F)ccc34)CC1)CCCC2 [risperidone, 4-[2-[4-(6-fluorobenzo[d]isoxazol-3-yl)-1-piperidyl]ethyl]-3-methyl-2,6-diazabicyclo[4.4.0]deca-1,3-dien-5-one]
weight gain associated with atypical antipsychotic [2]: greatest
